Measured values published in article PMC8465394, “An Arsenite Relay between PSMD14 and AIRAP Enables Revival of Proteasomal DUB Activity” (2021).

Amino acid sequences for entries named in this document (tags omitted). A change or cut given only in a name is not applied to a line headed by its entry.
UniProt Q9JII7: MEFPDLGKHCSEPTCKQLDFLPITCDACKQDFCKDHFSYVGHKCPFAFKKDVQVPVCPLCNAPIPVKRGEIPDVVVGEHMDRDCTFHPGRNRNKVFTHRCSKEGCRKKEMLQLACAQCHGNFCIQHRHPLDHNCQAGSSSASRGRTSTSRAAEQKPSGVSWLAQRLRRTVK

Molecular target: AIRAP (Mus musculus, UniProt Q9JII7)
Experiment: label-free microscale thermophoresis, intrinsic Trp fluorescence
Conditions: 1 μM AIRAP, 0.6 nM–20 μM arsenite, 50 mM Hepes pH 7.5, 150 mM NaCl, Tween-20

Question: With `O[As](O)O` as the compound, how does the Kd read?
Answer: 7 nM
